Assay results from patent EP0823908B1, “PYRIDO[2,3-d]PYRIMIDINES FOR INHIBITING PROTEIN TYROSINE KINASE MEDIATED [sequence] PROLIFERATION” (Warner-Lambert Company LLC, priority 1995, dated 1996).

Amino acid sequences for entries named in this document (tags omitted). Residues count along the entry.
UniProt P05622, 599-961 limits assumed: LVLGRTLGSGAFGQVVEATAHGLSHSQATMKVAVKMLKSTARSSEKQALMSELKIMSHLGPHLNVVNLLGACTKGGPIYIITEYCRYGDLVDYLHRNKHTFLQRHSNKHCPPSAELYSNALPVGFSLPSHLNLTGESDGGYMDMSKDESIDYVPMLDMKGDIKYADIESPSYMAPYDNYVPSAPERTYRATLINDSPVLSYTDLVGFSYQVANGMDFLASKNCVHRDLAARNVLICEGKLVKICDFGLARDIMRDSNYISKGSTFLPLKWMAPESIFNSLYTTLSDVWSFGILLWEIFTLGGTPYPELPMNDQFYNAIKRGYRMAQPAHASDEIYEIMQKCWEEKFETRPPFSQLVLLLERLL
UniProt P11362, 478-767 limits assumed: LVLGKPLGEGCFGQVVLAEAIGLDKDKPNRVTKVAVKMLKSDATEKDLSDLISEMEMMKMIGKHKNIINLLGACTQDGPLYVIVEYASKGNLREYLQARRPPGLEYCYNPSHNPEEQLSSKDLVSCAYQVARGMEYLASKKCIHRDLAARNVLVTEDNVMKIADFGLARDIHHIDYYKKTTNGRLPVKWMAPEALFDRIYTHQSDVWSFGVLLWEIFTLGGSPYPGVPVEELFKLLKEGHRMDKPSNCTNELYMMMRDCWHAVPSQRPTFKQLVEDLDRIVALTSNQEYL

How the values were obtained:
[1] = biological target: T1, mouse PDGF-β receptor tyrosine kinase (Mus musculus, UniProt P05622); experiment: PDGF receptor tyrosine kinase assay (32P incorporation into glutamate-tyrosine co-polymer); assay type: biochemical
T1 construct: amplify a fragment of DNA that codes for the intracellular tyrosine kinase domain; made in house; host or cells: SF9 insect cells (baculovirus)

[2] = biological target: T2, human FGF-1 (flg) receptor tyrosine kinase (Homo sapiens, UniProt P11362); experiment: FGF receptor tyrosine kinase assay (32P incorporation into glutamate-tyrosine co-polymer); assay type: biochemical
T2 construct: amplify a fragment of DNA that codes for the intracellular tyrosine kinase domain; made in house; host or cells: SF9 insect cells (baculovirus)

Row | pIC50 [1] | pIC50 [2] | SMILES
1 | 6.99 |  | Cn1c(=O)c(-c2c(Cl)cccc2Cl)cc2cnc(Nc3cccnc3)nc21 [Example 79, 6-(2,6-Dichlorophenyl)-8-methyl-2-(pyridin-3-ylamino)-8H-pyrido[2,3-d]pyrimidin-7-one]
2 | 7.12 |  | CCn1c(=O)c(-c2c(Cl)cccc2Cl)cc2cnc(Nc3ccncc3)nc21 [Example 93, (2,6-Dichlorophenyl)-8-ethyl-2-(pyridin-4-ylamino)-8H-pyrido[2,3-d]pyrimidin-7-one]
3 | 6.07 |  | CN1CCN(CCCCNc2ncc3cc(-c4c(Cl)cccc4Cl)c(=O)n(C)c3n2)CC1 [Example 59, 6-(2,6-Dichlorophenyl)-8-methyl-2-[4-(4-methylpiperazin-1-yl)-butylamino]-8H-pyrido[2,3-d]-pyrimidin-7-one]
4 | 6.59 | 6.44 | COc1cccc(Nc2ncc3cc(-c4c(Cl)cccc4Cl)c(=O)n(C)c3n2)c1 [Example 72, 6-(2,6-Dichlorophenyl)-2-(3-methoxyphenylamino)-8-methyl-8H-pyrido[2,3-d]pyrimidin-7-one]

pIC50: −log10 of the molar value.
